The values below are quoted from earlier work in patent US8623852B2, “Topical methods and compositions for the treatment of eye diseases and conditions” (Santen SAS, priority 2007, dated 2014).

Regarding Dexamethasone palmitate, for the setting “following topical administration”, the “penetration inside the eye” value was “does not significantly penetrate”. Moreover, the diffusion coefficient result (in vivo) is “very low”.
